Among the data in US11052131B2, “Methods and pharmaceutical compositions for the treatment of kidney cancer” (INSERM (Institut National de la Santé et de la Recherche …, priority 2016, dated 2021) are APJ internalization values, retold here.

In the assay the target is T1, human GFP-APJ fusion protein (Homo sapiens, UniProt P35414).
T1 construct: expressed in transfected cells
T1 sequence (P35414 1-380): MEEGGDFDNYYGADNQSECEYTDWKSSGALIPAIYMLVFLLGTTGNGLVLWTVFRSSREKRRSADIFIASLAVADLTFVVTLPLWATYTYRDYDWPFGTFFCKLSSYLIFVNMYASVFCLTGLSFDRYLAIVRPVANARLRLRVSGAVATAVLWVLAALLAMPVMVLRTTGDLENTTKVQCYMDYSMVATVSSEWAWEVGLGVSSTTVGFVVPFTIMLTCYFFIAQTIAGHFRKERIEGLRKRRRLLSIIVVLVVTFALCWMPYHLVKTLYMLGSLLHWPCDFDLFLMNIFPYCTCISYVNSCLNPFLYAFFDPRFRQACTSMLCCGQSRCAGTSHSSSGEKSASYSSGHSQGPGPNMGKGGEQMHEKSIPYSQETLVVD
Put plainly: APJ receptor internalization assay in HEK293A cells expressing GFP-APJ. It is filed as cell-based. As to conditions: 1 μM peptide, 30 min, HEK293 cells expressing GFP-APJ. Here is the method:
HEK293A cells stably expressing human GFP-APJ fusion protein were serum starved for 24 hours, and treated for 30 minutes with 1 μM Ela 11, wild type proEla 32 or mutant proEla 32 peptide. Cells were fixed with 4% paraformaldehyde for 10 minutes at room temperature and APJ receptor internalization was analyzed using a Nikon epifluorescence microscopy.
Ligand-induced receptor internalization is a cellular response of APJ to ligand binding and its activation. To investigate whether mature ELA 11, wild type and mutant pro Ela 32 will induce APJ internalization, we expressed in stable manner APJ as a fusion protein with enhanced green fluorescent protein (GFP-APJ, data not shown) through lentiviral infection in HEK293 cells and examined its intracellular localization in response to indicated Ela peptides. At the basal level, the fusion protein was mainly localized at the cell surface.

On to “QRPVNLTMRRKLRKHNCLQRRCMPLHSRVPFP [wild type proEla 32]”, for which the APJ internalization result was “able to activate the APJ receptor and mediate its internalization”.
